The conditions of data set [1]: 50 μg GLIP subcutaneously; FIG. 6 Panel E.
The test system of data set [2] is normal volunteers. Briefly: Sustacal meal preceded by subcutaneous GLIP injection in normal volunteers (Example 4). Format: in vivo, human. Here is the method:
7 normal volunteers were studied after ingestion of a Sustacal meal either alone or immediately preceded by a subcutaneous injection of 1.00 μg GLIP.
Results are shown in FIG. 4. *indicates statistically significant differences between treatments (p<0.05).

From US6989148B2, “Treatment of diabetes” (priority 1994, dated 2006) come the findings set out here.

For the substance “Glucagon-like peptide 1(7-36)amide [GLIP]”, the “time for GLIP to be cleared from the blood” value in data set [1] is given as “about two”. The “delay in increase in blood levels (glucose, HPP, C-peptide, insulin) relative to first dose” value in data set [2] (50 μg dose of GLIP) is “proportionally shorter”; in data set [2] (200 μg dose of GLIP), “longer delays”.
